Values of other authors in publication PMC4439582 (Immunity, 2015).

Sequences of proteins named here, by UniProt entry; tags and fusion partners are left off. Residues count along the entry.
UniProt P01589, 22-240, chain 1 of 3: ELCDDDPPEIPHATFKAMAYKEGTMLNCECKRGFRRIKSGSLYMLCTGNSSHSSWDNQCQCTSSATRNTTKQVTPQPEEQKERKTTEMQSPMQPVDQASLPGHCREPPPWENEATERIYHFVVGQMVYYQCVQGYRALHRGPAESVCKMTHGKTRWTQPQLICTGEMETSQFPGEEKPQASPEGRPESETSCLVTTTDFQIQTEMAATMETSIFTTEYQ
UniProt P60568, 21-153: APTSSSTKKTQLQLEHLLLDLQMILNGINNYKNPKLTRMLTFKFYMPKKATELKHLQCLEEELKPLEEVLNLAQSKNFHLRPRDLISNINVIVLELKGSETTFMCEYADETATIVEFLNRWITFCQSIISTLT

Molecular target: IL-2Rα/IL-2Rβ/IL-2Rγ (Homo sapiens) (UniProt P01589)
Conditions: cited from earlier work

Substance: IL-2 (from UniProt P60568)
- Kd: 0.01 nM
